The target in this assay is human Cathepsin D (Homo sapiens, UniProt P07339). Put plainly: Cathepsin D inhibition assay, hydrolysis of chromogenic substrate. The note with it: read-out: Ki CatD; 25° C., 10 mM sodium formate, 2% DMSO, pH 4.0; fit to competitive inhibition. The method, then: The specific activity of plasmepsin II from Plasmodium falciparum (Plm II) cloned in and purified from Escherchia coli and commercially available human Cathepsin D were measured by following the hydrolysis of the chromogenic substrate Ala-Leu-Glu-Arg-Thr-nPhe-Phe-Ser-Phe-Pro-Thr-OH (California Peptide Research Inc., Napa, Calif.). The decrease in absorbance upon hydrolysis is monitored at 300 nm. Typical Plasmepsin II preparations hydrolyze chromogenic substrate at 4-5 s^−1 at 37° C. The inhibition assays were performed at 25° C. in 10 mM sodium formate, 2% DMSO, pH 4.0. These pH conditions mimic the conditions in the food vacuole of the parasite. Under the conditions of the assays the Km for plasmepsin II is 20 μM and for human Cathepsin D is 130 μM. Inhibition constants (Ki) for the inhibitors are obtained at the desired temperature and solvent conditions by measuring the rate of substrate hydrolysis at increasing amounts of inhibitors. Exemplary results from three compounds (KNI-10033, KNI-10030 and KNI-10006) are shown in FIG. 7A-C, and the results obtained with all KNI compounds tested are given in Table 1.

Sequences of proteins named here, by UniProt entry; tags and fusion partners are left off. Residues count along the entry.
UniProt P07339, 65-412 limits assumed: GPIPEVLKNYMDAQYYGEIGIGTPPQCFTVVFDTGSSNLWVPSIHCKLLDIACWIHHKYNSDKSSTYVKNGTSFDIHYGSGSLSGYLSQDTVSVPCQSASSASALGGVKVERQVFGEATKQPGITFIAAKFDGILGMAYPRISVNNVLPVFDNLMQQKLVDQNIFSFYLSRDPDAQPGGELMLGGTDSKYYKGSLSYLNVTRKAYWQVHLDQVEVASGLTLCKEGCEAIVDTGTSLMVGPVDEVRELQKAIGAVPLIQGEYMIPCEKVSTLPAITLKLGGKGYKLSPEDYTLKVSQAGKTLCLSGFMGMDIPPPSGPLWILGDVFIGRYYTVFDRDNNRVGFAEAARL

Regarding `Cc1c(O)cccc1C(=O)N[C@@H](Cc1ccccc1)[C@H](O)C(=O)N1CSC[C@H]1C(=O)NC(C)(C)C`, the inhibitory constant (Ki) – broadly, a dissociation constant, usually derived from enzyme kinetics or from competition with a known ligand – came to 37.7 µM. Turning to `C[C@@H](O)[C@H](NC(=O)COc1cccc2cnccc12)C(=O)N[C@@H](Cc1ccccc1)[C@H](O)C(=O)N1CSC(C)(C)[C@H]1C(=O)NC(C)(C)C`, the Ki came out at 38.1 µM.

The values are drawn from US7560482B2, “Inhibitors of plasmepsins” (The Johns Hopkins University, priority 2001, dated 2009).
